Results reported in US20080312292A1, “Antipruritics” (priority 2002, published 2008).

Amino acid sequences for entries named in this document (tags omitted).
UniProt P34972, whole entry: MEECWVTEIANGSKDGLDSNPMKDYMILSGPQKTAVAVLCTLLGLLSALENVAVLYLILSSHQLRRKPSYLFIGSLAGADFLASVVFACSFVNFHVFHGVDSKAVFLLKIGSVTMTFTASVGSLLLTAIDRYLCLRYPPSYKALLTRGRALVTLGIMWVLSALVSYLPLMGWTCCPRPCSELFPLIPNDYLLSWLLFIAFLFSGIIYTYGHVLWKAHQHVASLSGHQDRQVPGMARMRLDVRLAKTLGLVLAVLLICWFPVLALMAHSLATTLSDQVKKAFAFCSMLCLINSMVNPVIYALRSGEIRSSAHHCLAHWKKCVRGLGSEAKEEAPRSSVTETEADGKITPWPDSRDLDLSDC
UniProt P21554, whole entry: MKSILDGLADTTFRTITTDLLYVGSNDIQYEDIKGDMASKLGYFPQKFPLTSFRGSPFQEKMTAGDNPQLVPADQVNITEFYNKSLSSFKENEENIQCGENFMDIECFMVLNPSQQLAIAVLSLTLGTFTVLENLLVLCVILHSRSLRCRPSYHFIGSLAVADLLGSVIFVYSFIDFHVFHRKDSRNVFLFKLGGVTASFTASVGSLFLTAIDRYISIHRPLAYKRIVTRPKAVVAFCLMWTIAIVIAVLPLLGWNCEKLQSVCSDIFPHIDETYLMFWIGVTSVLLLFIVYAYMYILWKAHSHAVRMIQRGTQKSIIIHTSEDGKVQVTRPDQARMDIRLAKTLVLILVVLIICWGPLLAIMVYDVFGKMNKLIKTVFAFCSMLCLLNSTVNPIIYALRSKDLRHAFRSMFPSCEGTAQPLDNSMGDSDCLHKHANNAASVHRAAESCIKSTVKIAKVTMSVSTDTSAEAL

Assays:
[1] = target: human CB2R (Homo sapiens, UniProt P34972); test: Cannabinoid receptor-mediated suppression of forskolin-stimulated cAMP synthesis, CB2R; type: cell-based; conditions: read-out: CB2 receptor IC50, CHO cells expressing human CB2R
[2] = target: Human cannabinoid receptor CB2R (Homo sapiens, UniProt P34972); test: Human cannabinoid receptor binding inhibition, [3H]CP55940, CB2R; conditions: read-out: Ki CB2 receptor; membranes of CB2R-expressing CHO cells, [3H]CP55940 0.5 nM
[3] = target: Human cannabinoid receptor CB1R (Homo sapiens, UniProt P21554); test: Human cannabinoid receptor binding inhibition, [3H]CP55940, CB1R; conditions: read-out: Ki CB1 receptor; membranes of CB1R-expressing CHO cells, [3H]CP55940 0.5 nM

Row | Compound | IC50 [1] [nM] | Ki [2] [nM] | Ki [3] [nM]
1 | CCCCn1c2c(cc(C(=O)NCCc3ccccc3)c1=O)CCCCC2 | 4.2 | 6 | 482
2 | CCCCn1c2c(cc(C(=O)NCCc3ccc(F)cc3)c1=O)CCCCC2 | 4.3 | 8 | 551
3 | CCCCn1c2c(cc(C(=O)NCc3ccccc3)c1=O)CCCCCCCC2 | 2.3 | 2.5 | 124
4 | CCCCn1c2c(cc(C(=O)NCc3ccccc3)c1=O)CCCCC2 | 7.9 | 6 | 254
5 | CCSc1ccccc1N=C1SCC(C)(C)CN1C(=S)SC | – | 43 | –
